{"source": "paper PMC5748433", "about": "“Study on the effect of EMD386088, a 5-HT6 receptor partial agonist, in enhancing the anti-immobility action of some antidepressants in rats” (Naunyn-Schmiedeberg's Archives of Pharmacology, 2017)", "tested_on": "rats", "experiment": "Open field (OF) test in rats, locomotor/exploratory activity", "type": "in vivo, rat", "details": "5 mg/kg i.p. 60 min before test, 5-min session, mean ± SEM"}
{"smiles": "CCOc1ccccc1OC(c1ccccc1)C1CNCCO1", "note": "(stereo not shown) [reboxetine]", "values": [{"measurement": "Exploratory activity Ambulation X", "result": "221 ± 16"}, {"measurement": "Exploratory activity Ambulation Y", "result": "220 ± 12"}, {"measurement": "Exploratory activity Rearings", "result": "84 ± 6"}, {"measurement": "Exploratory activity Total distance (cm)", "result": "2196 ± 74", "unit": "cm"}]}
